# Laboratory results: patent US20240269308A1, “PRODRUGS OF TOPOISOMERASE I INHIBITOR FOR ADC CONJUGATIONS AND METHODS OF USE THEREOF” (priority 2022, published 2024)
# How the values were obtained:
# [1] = system: NCI-N87 cells; test: anti-Her2 viability assay, NCI-N87 cells (target positive); type: cell-based; conditions: 6 days
# Protocol: (§1) The anti-Her2 viability assay protocol is following.
# (§2) 0.1% BSA was added to the Opti-MEM reduced serum media [Gibco, cat #31985-070]. This assay media was used for the dilution of ADC and free drug.
# (§3) Cells were seeded in their growth media into 96 well plates (Thermo #136101) one day prior to adding ADCs: 1000/well SKBR3 cells in 80 uL media (target positive cells), 1000/well NCI-N87 cells in 80 uL media (target positive cells), 1000/well Calu-3 in 80 uL media (target positive cells), and 800/well NCI-H1975 cells in 80ul media (target negative cells).
# (§4) Serial dilutions of free drug in 100% DMSO (1:4 10 pts starting from 100 uM) were prepared. Serially diluted payload was transferred into Opti-Mem with 0.1% BSA (10 uL into 990 uL media). Serial dilutions of ADCs/isotype controls at 1:4 in Opti-Mem with 0.1% BSA (starting from 5×1000 nM) were prepared. 20ul assay media diluted ADC/isotype conjugates as well as free drug were transferred to above cells. The plates were incubated at 37° C., 5% CO2 for 6 days. Plates were developed by adding 100ul CellTiter Glo 2.0. RT 5-10 min. Plates were read with Envision plate reader. Data was analyzed using Prism. Only inner 60 well are used for the assay. The edge wells were filled with media to prevent dry out.
# [2] = system: SK-BR-3 cells; test: SKBR3 cell-based anti-proliferation / viability assay (CellTiter-Glo); parameters: species or system human; conditions: SKBR3 target positive cells, 6 days
# Protocol: as §1, §2, §3
# Serial dilutions of free drug in 100% DMSO (1:4 10 pts starting from 100 uM) were prepared. Serially diluted payload was transferred into Opti-Mem with 0.1% BSA (10 uL into 990 uL media). Serial dilutions of ADCs/isotype controls at 1:4 in Opti-Mem with 0.1% BSA (starting from 5×1000 nM) were prepared. […] Plates were read with Envision plate reader. Data was analyzed using Prism. […]
# The cell line used in the anti-proliferation assays was SK-BR-3, a human breast, adenocarcinoma (pleural effusion) cell line; The cells were grown in McCoy's 5a Medium+10% FBS. […] After the plates were shaken for 10 min and then incubated for 10 min at room temperature, paste the clear bottom with white back seal and record luminescence with Envision. The inhibition % was calculated according to the following equation: inhibition %=[1-(assay-blank)/(control-blank)]×100.
# [3] = system: Calu-3; test: anti-Her2 viability assay, Calu-3 cells (target positive); type: cell-based; conditions: Calu-3 target positive cells, 6 days
# Protocol: as §1, §2, §3, §4
# [4] = system: NCI-H1975 cells; test: anti-Her2 viability assay, NCI-H1975 cells (target negative); type: cell-based; conditions: 6 days
# Protocol: as §1, §2, §3, §4
# [5] = system: JIMT-1; test: in vitro cell killing activity, JIMT-1 cells (CellTiter Glo viability); type: cell-based
# Protocol: as §4
Compound,N87 % Kill [1],SKBR3 % Kill [2],IC50 ([2]; CellTiter Glo),IC50 [1],Calu-3 % Kill [3],IC50 [3],H1975 % Kill [4],IC50 [4],IC50 [5],JIMT-1 % Kill [5]
"CC[C@@]1(O)C(=O)OCc2c1cc1n(c2=O)Cc2c-1nc1cc(F)c(C)c3c1c2[C@@H](NC(=O)CO)CC3 [Dxd, reference compound]",98.6%,,,,,,,,,
"CC[C@@]1(O)C(=O)OCc2c1cc1n(c2=O)Cc2c-1nc1cc(F)c(C)c3c1c2[C@@H](NC(=O)COCNC(=O)[C@@H](N)Cc1ccccc1)CC3 [P7, (2S)-2-amino-N-[({[(10S,23S)-10-ethyl-18-fluoro-10-hydroxy-19-methyl-5,9-dioxo-8-oxa-4,15-diazahexacyclo[14.7.1.0^2,14.0^4,13.0^6,11.0^20,24]tetracosa-1,6(11),12,14,16,18,20(24)-heptaen-23-yl]carbamoyl}methoxy)methyl]-3-phenylpropanamide]",98.6%,,,,,,,,,
Cont. DS8201a,83.4%,88.0%,95.3 nM,168 nM,87.9%,157 nM,51.6%,689 nM,> 400 nM,44.7%
